The results in this text go back to PubChem BioAssay AID720700 (The Scripps Research Institute Molecular Screening Center, 2013).

The chains behind the UniProt entries cited, without tags or fusion partners. Where a name states a change or a piece, a line headed by the entry shows the natural chain unless it says otherwise.
UniProt P19174: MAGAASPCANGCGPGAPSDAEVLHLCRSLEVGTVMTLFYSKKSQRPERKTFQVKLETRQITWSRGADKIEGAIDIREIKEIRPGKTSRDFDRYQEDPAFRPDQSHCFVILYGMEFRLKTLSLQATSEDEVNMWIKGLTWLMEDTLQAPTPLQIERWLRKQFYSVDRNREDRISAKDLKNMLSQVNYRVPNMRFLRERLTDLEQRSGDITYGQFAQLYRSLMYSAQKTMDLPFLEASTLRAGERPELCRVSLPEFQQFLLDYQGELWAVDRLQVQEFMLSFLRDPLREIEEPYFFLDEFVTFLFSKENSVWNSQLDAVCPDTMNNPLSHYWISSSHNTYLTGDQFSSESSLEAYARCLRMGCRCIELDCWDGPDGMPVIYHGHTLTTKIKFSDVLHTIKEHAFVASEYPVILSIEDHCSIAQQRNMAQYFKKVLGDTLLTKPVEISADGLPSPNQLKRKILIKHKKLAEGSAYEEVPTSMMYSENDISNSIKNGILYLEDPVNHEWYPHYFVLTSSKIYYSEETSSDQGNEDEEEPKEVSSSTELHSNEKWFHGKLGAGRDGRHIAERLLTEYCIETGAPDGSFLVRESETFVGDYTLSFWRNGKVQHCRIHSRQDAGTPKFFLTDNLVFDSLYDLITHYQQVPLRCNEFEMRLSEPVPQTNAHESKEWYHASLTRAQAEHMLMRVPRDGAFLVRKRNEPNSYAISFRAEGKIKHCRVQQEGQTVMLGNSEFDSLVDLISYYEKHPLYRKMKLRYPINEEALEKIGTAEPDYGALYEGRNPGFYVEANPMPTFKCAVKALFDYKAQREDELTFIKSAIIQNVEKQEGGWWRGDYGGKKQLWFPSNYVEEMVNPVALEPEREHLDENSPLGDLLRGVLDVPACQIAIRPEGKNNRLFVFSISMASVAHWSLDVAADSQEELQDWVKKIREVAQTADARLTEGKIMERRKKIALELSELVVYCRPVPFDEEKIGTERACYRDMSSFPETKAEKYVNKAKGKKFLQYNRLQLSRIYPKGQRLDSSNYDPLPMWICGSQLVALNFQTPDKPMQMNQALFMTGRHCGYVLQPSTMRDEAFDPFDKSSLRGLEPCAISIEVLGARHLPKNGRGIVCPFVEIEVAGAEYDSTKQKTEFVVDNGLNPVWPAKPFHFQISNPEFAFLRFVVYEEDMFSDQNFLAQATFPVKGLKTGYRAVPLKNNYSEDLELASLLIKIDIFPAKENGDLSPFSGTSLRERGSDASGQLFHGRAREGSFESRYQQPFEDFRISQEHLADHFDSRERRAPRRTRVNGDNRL

The list shows a part of the results, in another mix than the full data. Calls of active or inactive are those of the source. No stated cut-off is given here; in the data, active means inhibition above about 9.5%; inactive means the rest.

The target of the assay is 1-phosphatidylinositol 4,5-bisphosphate phosphodiesterase gamma-1 (Homo sapiens) (UniProt P19174). The experiment in a line: PLC-gamma1 enzyme inhibitors, primary screen, biochemical, fluorescence, purified enzyme (AID 720700). The conditions noted are these: purified PLC-gamma1, fluorogenic substrate, at 12.2 µM, stronger effect = higher value.
As to `CCC(C)N(CC(C)C)C(=S)SC(NC(C)=O)C(Cl)(Cl)Cl` (stereo not drawn), the inhibition was inactive: 2.32%.

Turning to `O=C(OC1CN2CCC1CC2)c1cccc([N+](=O)[O-])c1` (stereo not drawn), the inhibition is inactive: 2.58%.

As to `CCOC(=O)c1ccc(NC(=O)C(C)(CCl)SC)cc1` (stereo not drawn), the inhibition was inactive: 4.13%.

As to `O=P1(N(CCCl)CCCl)Nc2ccccc2N1`, the inhibition was inactive: -17.9%.

On to `O=P1(N(CCCl)CCCl)OCCCN1CCCl` (stereo not drawn), for which the inhibition is inactive: 1.18%.

In the case of `COc1cc(I)ccc1[As](=O)(O)O`, the inhibition is inactive: 7.3%.

In the case of `COc1ccc2nc(NP(=O)(c3ccccc3)c3ccccc3)sc2c1`, the inhibition was inactive: -0.33%.

Consider `Cc1c2c(nc3ccccc13)SC(C(Cl)Cl)C2` (stereo not drawn), for which the inhibition is inactive: -16.5%.

In the case of `Cc1cc(=O)[nH]c(N[N+](=O)[O-])n1`, the inhibition is inactive: -0.82%.

Regarding `O=C(OC1CN2CCC1CC2)C12CC3CC(CC(C3)C1)C2` (stereo not drawn), the inhibition is inactive: 5.7%.

`O=[N+]([O-])c1cc(Oc2ccc([N+](=O)[O-])cc2C(F)(F)F)cc([N+](=O)[O-])c1`: the inhibition was inactive: 3.52%.

Turning to `COc1ccc(N/C(=N/P(=O)(N2CCOCC2)N2CCOCC2)N2CCOCC2)cc1`, the inhibition is inactive: 0.25%.

For `Cc1ccc(OP(=O)(Nc2ccc([N+](=O)[O-])cn2)Oc2ccc(C)cc2)cc1`, the inhibition is inactive: 3.83%.

As to `[N-]=[N+]=NC1CCCCC1NC(=O)c1cc([N+](=O)[O-])cc([N+](=O)[O-])c1` (stereo not drawn), the inhibition is inactive: 2.81%.

On to `Cc1ccc2nc3c(c(C)c2c1)CC(C(Cl)Cl)S3` (stereo not drawn), for which the inhibition was inactive: -31.5%.

In the case of `COc1cc(C(=O)NCC2(N3CCOCC3)CCCCC2)ccc1OCC(C)C`, the inhibition is inactive: 2.05%.

As for `O=[N+]([O-])c1ccc(-c2cc([N+](=O)[O-])c(O)c([N+](=O)[O-])c2)cc1`, the inhibition was inactive: 2.63%.

Take `O=[As](O)(c1ccc(O)cc1)c1ccccc1O`: the inhibition is inactive: 1.04%.

Regarding `C[As](=O)(O)c1cccc(C(=O)O)c1`, the inhibition is inactive: 4.85%.

`O=C(OC1CN2CCC1CC2)c1cccc2[nH]cnc12` (stereo not drawn): the inhibition was inactive: -2.14%.

For the compound `CCN(CC)C(=S)SC(NC=O)C(Cl)(Cl)Cl` (stereo not drawn), the inhibition is inactive: 0.16%.

Turning to `CC(C)NC(=O)NP(=O)(Oc1ccccc1)Oc1ccccc1`, the inhibition is inactive: 2.5%.

For the compound `ClCCSc1nnc(-c2cccnc2)o1`, the inhibition is inactive: 3.42%.

`CC(C)c1ccc(OP(=O)(Nc2ccccn2)Oc2ccccc2F)cc1` (stereo not drawn): the inhibition was inactive: 0.84%.

Consider `COC(=O)C1(C)COP(=O)(N2CCCCCC2)OC1` (stereo not drawn), for which the inhibition was inactive: 0.89%.

`O=C(O)COc1ccc([As](=O)(O)O)cc1[N+](=O)[O-]`: the inhibition is inactive: -7.11%.

In the case of `Nc1ccccc1[As](=O)(O)c1ccccc1`, the inhibition is inactive: 0.93%.

Regarding `O=P(Nc1nccs1)(Oc1ccccc1)Oc1ccccc1`, the inhibition is inactive: -0.47%.

Usually inhibition stands for the change of the read-out against control, counted positive when it falls.
